From US9109007B2, “MHC-I restricted epitopes containing non-natural amino acid residues” (Purdue Pharma L.P., priority 2010, dated 2015)

Assays:
[1] = tested on: CD8+ T-cells; test: ELISPOT assay measuring IFNgamma production by CD8+ T-cells expanded by in vitro education on peptide-pulsed dendritic cells; format: cell-based, human; conditions: T-cells generated with the listed peptide, targets pulsed with 10 uM native MART-1 peptide
[2] = tested on: CD8+ T-cells; test: CD107 a and b staining (degranulation) of CD8+ T-cells expanded by in vitro education on peptide-pulsed dendritic cells; format: cell-based, human; conditions: T-cells generated with the listed peptide; HLA-A0201-transfected C1R targets pulsed with 20 uM native MART-1

With “AAGIGILTV [Native MART-1 nonamer peptide]” the “IFNγ Production for Targets Pulsed with Native MART-1” value [1] was 11 and the “% CD8+ T-cells Degranulating (CD107+) for Targets Pulsed with Native MART-1” value [2] was 4%.
